Measurements from US8017401B2, “Method for determining redox activity and screening compounds based on redox activity” (State of Oregon acting by and through the State Board of …, priority 2005, dated 2011).

Chains of the proteins cited; added tags and fusions are not shown.
UniProt P47989, whole entry, looked up: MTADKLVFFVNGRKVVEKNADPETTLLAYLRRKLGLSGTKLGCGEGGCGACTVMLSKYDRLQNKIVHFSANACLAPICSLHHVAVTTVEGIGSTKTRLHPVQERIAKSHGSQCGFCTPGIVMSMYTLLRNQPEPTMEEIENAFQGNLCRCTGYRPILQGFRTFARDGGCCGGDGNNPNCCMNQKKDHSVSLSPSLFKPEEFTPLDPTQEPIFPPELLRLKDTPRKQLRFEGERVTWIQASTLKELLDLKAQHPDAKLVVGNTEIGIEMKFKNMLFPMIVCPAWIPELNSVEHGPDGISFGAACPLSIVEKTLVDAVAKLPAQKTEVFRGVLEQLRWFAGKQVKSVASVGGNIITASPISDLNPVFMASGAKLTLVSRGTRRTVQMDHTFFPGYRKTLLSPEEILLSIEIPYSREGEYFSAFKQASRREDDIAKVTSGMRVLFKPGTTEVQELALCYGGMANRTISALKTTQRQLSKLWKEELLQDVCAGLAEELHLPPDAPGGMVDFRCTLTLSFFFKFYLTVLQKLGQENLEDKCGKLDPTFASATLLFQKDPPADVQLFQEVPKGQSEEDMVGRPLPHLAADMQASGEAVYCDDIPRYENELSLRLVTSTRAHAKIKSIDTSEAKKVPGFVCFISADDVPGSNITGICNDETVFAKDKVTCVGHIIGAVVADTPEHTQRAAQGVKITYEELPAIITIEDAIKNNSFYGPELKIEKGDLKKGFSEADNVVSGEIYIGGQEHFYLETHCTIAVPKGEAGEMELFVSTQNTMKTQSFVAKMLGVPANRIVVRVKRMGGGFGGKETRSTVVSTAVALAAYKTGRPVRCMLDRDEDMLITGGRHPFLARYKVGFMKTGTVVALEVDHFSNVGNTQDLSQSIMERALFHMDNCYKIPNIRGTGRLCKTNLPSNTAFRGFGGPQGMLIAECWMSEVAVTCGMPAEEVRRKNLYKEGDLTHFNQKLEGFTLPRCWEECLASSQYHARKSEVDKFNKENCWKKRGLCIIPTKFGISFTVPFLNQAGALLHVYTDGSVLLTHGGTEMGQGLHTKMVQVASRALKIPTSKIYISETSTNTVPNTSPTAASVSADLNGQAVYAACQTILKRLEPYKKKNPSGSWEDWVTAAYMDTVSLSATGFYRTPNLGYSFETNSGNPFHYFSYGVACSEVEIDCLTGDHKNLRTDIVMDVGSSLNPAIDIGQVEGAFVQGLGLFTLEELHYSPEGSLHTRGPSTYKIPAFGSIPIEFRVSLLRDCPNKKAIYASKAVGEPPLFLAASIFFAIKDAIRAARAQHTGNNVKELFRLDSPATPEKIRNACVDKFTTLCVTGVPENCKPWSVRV

Experiments:
[1] = biological target: xanthine-xanthine oxidase reaction (Homo sapiens, UniProt P47989); assay: Superoxide measurement in the xanthine-xanthine oxidase reaction; assay type: biochemical
[2] = Reaction of NBD-Cl with KO2: stopped-flow kinetics, absorbance and fluorescence calibration; assay type: physicochemical; details: kinetic stopped-flow analysis, DMSO

SMILES: O=[N+]([O-])c1ccc(Cl)c2nonc12
- effect of the probe on the xanthine-xanthine oxidase reaction rate ([1]; 15 μM xanthine, 100 nM xanthine oxidase, XTT 600 μM): slight activating effect
- measured amount of superoxide ([1]; 15 μM xanthine, 100 nM xanthine oxidase, maximum absorbance 0.048 at 470 nm): 12.0 µM
- Superoxide at 470 nm (initial rate of superoxide formation) ([1]; 50 μM xanthine, 150 nM xanthine oxidase, phosphate buffer pH 7.4, NBD-Cl 100 μM, XTT 600 μM): 0.127 ± 0.002
- second-order bimolecular rate constant for the reaction between NBD-Cl and KO2 [2]: 1.5±0.3×10^5 M^−1s^−1
